ChEMBL document CHEMBL3045925, “Isolation of terrestribisamide from Peltophorum pterocarpum (DC.) Baker ex. K. Heyne and its antimicrobial, antioxidant, and cytotoxic activities” (Med Chem Res, 2013)

What was measured:
COLO 320 = assay: Cytotoxicity against Homo sapiens (human) COLO320 cells by MTT assay; assay type: functional, cell-based
[1] = Antioxidant activity assessed as reduction of Fe3+ to Fe2+ after 4 min by spectrophotometric analysis relative to butylated hydroxytoluene; assay type: functional

COc1cc(/C=C/C(=O)NCCCCNC(=O)/C=C/c2ccc(O)c(OC)c2)ccc1O [TERRESTRIBISAMIDE]
Activity (COLO 320): Dose-dependent effect
fold change (FC) [1]: 3
